Article PMC4319893 (2015)

By UniProt entry, the sequences of proteins in these tests, tags left out.
UniProt Q9P021, whole entry: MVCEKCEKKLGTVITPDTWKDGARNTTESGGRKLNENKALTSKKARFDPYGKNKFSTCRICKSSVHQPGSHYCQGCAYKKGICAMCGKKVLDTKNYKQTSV

Target: CRIPT (Homo sapiens, UniProt Q9P021)
Assay: fluorescence polarization

B1: PSD-95 PDZ2 (protein)
chain: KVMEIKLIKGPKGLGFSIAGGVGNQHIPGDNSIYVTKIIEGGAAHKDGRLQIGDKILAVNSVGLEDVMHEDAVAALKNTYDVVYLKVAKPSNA
  Ki: 25 µM
